{
  "source": "patent US20120289541A1",
  "about": "(NOVARTIS AG, priority 2010, published 2012)",
  "assay": "External ear dosing of 3% moxigel after 10% or 50% IPM pretreatment, MEF microdialysis",
  "conditions": "3% moxigel 9 mg external ear, mean",
  "data": [
    {"smiles": "COc1c(N2C[C@@H]3CCCN[C@@H]3C2)c(F)cc2c(=O)c(C(=O)O)cn(C3CC3)c12", "note": "[moxifloxacin]", "values": [
      {"measurement": "Time over 10 μg/mL", "value": 2847, "unit": "min"}
    ]}
  ]
}
